# scFv variants of Ab-14 (heavy chain) against a SARS-CoV-2 spike peptide

Binding partner: SARS-CoV-2 spike HR2 peptide, sequence PDVDLGDISGINAS.

The variants keep the light chain, the linker and the frameworks of Ab-14 (scFv order VH, the linker GGGGSGGGGSGGGGS, VL).
VH: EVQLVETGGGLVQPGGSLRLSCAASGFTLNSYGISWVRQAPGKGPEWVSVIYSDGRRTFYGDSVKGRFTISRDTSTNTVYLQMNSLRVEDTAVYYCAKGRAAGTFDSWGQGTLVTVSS
VL: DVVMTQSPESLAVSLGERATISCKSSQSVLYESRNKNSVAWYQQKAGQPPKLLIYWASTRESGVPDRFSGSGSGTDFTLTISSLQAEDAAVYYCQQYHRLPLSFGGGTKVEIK

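The parent was found by panning a naive human phage display library on the peptide. This is the validation round: designs drawn from the data on random variants, tested in the same kind of assay. Their group label is 14H_En_Gen (En: ensemble of fine-tuned language models; Gen: genetic algorithm). In AlphaSeq, yeast of one mating type display the scFv and yeast of the other type display the target. The frequency of each diploid, read from paired DNA barcodes, reflects how well the two displayed proteins bind. A regression on co-assayed BCL2-family reference pairs converts the normalised counts of each replicate to an apparent Kd. The assay was run in six technical replicates.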

The parent's heavy chain CDRs are GFTLNSYGIS, VIYSDGRRTFYGDSVK, GRAAGTFDS; each variant's own CDRs replace them letter for letter.
Scale: log10 of Kd in nM, estimated from mating counts; low values are strong binders.
"nd" marks a missing value. The strain was present, yet no cells mated with the target were sequenced in that replicate, which points to weak or no binding.
Three control strains display no target. For all heavy chain designs, 1% of the pairings with them gave a signal, with a median of 2.08 and one signal in twenty below 0.84, so weak values seen in few replicates may be background. For each scFv, signals with the empty controls are counted beside the result, with their mean in brackets.
The authors' rule: three or more of the six replicates give a measured affinity, fewer mean a poor binder.
Values of this round are not directly comparable with the first-round values of the same sequences.
The parent sequence was in this pool as ten entries: three were never detected, three once, and four in most replicates, with averages from 0.34 to 2.37.

CDR-H1	CDR-H2	CDR-H3	replicates, log10 nM	empty controls
GFDLDEYGIS	VIYADGQRTAYTDSVK	GEVAGTFDL	0.05 / -0.43 / -0.63 / -0.38 / -0.45 / -0.34	0/18
GFDLNEYGIS	VIYADGRRTFYADSVK	GENAGTFDM	-0.15 / 0.19 / -0.24 / -0.48 / 0.15 / 0.01	0/18
GFDLNEYGIS	VIYADGMRTYYADSVK	GETAGTFDV	-0.06 / 0.01 / -0.02 / 0.11 / -0.50 / 0.11	0/18
GFDLDEYGIS	VIYADGVRTAYADDVK	GEVAGTFDV	-0.27 / -0.58 / -0.80 / -0.95 / -0.91 / -0.83	0/18
GFDLNEYGIS	VIYADGSRTAYADSVK	GKNAGTFDV	-0.32 / -0.27 / -0.74 / -0.86 / -0.45 / -0.31	1/18 (2.12)
GFDLDEYGIS	VIYADGQRKAYADSVK	GENAGTFDV	-0.54 / -0.25 / -0.54 / -0.49 / -0.63 / -0.29	1/18 (2.12)
GFDLDEYGIS	VIYADGKRTAYADSVK	GSNAGTFDM	-0.31 / -0.28 / -0.57 / -0.46 / 0.19 / 0.47	0/18
GFDLNEYGIS	VIYADGKRTAYSDSVK	GTNAGTFDM	0.00 / 0.12 / 0.03 / -0.23 / -0.23 / 0.05	0/18
GFDLNEYGIS	VIYADGMRTAYADDVK	GEVAGTFDL	0.30 / 0.52 / 0.11 / -0.02 / -0.02 / 0.17	0/18
GFDLNEYGIS	VIYADGMRTAYVDDVK	GNVAGTFDQ	1.16 / 1.65 / 1.32 / nd / 1.99 / 0.80	0/18
GFDLDEYGIS	VIYADGVRTAYSDSVK	GENAGTFDT	0.02 / -0.46 / -0.38 / -0.80 / 0.06 / 0.51	0/18
GFDLDEYGIS	VIYADGKRTAYADSVK	GNQAGTFDQ	0.19 / -0.04 / -0.42 / -0.78 / -0.30 / -0.11	0/18
GFDLDEYGIS	VIYADGMRTYYADSVK	GNVAGTFDV	0.26 / 0.37 / -0.23 / -0.31 / -0.17 / 0.40	0/18
GFDLNEYGIS	VIYADGMRTAYANDVK	GEVAGTFDI	-0.65 / -0.82 / -0.61 / -0.81 / -0.61 / -0.77	2/18 (1.97)
GFDLNEYGIS	VIYADGQRTYYADDVK	GENAGTFDV	-0.49 / -0.60 / -0.40 / -0.62 / -0.44 / -0.28	0/18
GFDLNEYGIS	VIYADGVRKAYADDVK	GNNAGTFDV	-0.61 / -0.51 / -0.43 / -0.42 / -0.67 / -0.43	0/18
GFDLNEYGIS	VIYADGLRTAYADSVK	GNVAGTFDM	-1.36 / -1.25 / -1.90 / -1.74 / -2.07 / -1.61	0/18
GFDLNEYGIS	VIYADGSRTAYADDVK	GGNAGTFDV	0.32 / 0.45 / 0.59 / -0.02 / 0.22 / 0.49	0/18
GFDLDEYGIS	VIYADGSRTAYADSVK	GNVAGTFDM	-0.08 / -0.47 / 0.02 / -0.16 / -0.32 / 0.19	0/18
GFDLDEYGIS	VIYADGMRTAYTDSVK	GSNAGTFDV	0.12 / -0.46 / 0.05 / -0.32 / -0.13 / -0.24	0/18
GFDLNEYGIS	VIYADGVRTFYSDSVK	GNVAGTFDV	-0.42 / -0.90 / -0.66 / -0.74 / -0.44 / -0.44	0/18
GFDLDEYGIS	VIYADGQRTAYADSVK	GEVAGTFDI	-0.28 / -0.50 / -0.60 / -0.04 / -0.74 / -0.72	0/18
GFDLNEYGIS	VIYADGMRTAYADDVK	GGNAGTFDI	-0.53 / -0.46 / -0.51 / -0.86 / -0.25 / -0.39	0/18
GFDLDEYGIS	VIYADGSRTAYSDSVK	GTNAGTFDV	-0.03 / 0.35 / -0.09 / 0.13 / 0.20 / 0.22	0/18
GFDLDEYGIS	VIYADGMRTAYSDSVK	GEVAGTFDT	1.55 / 2.12 / 0.98 / 1.20 / 0.78 / 1.06	0/18
GFDLNEYGIS	VIYADGRRTAYADDVK	GNNAGTFDI	0.14 / -0.39 / -0.35 / -0.58 / -0.69 / -0.22	0/18
GFDLNEYGIS	VIYADGMRTQYADSVK	GNVAGTFDT	0.96 / -0.11 / 0.14 / 0.29 / -0.48 / 0.06	0/18
GFDLNEYGIS	VIYADGIRTAYSDSVK	GNVAGTFDV	-0.30 / -0.45 / -0.08 / -0.51 / -0.75 / -0.22	0/18
GFDLDEYGIS	VIYADGRRTAYADSVK	GNTAGTFDV	-0.32 / -0.43 / -0.54 / -0.59 / -0.48 / -0.42	0/18
GFDLNEYGIS	VIYADGKRTAYVDSVK	GNQAGTFDL	-0.23 / 0.00 / -0.34 / -0.40 / -0.33 / -0.21	0/18
GFDLNEYGIS	VIYADGVRTSYADSVK	GNVAGTFDL	-0.41 / -0.28 / -0.31 / -0.27 / -0.31 / -0.27	0/18
GFDLNEYGIS	VIYADGMRKAYADDVK	GNVAGTFDT	nd / 0.04 / nd / nd / nd / 0.19	0/18
GFDLNEYGIS	VIYADGKRTAYANSVK	GNVAGTFDQ	-0.43 / -0.95 / -0.85 / -0.76 / -0.73 / -0.72	0/18
GFDLDEYGIS	VIYADGRRTAYADSVK	GEVAGTFDM	-0.27 / -0.28 / -0.69 / -0.68 / -0.41 / -0.27	0/18
GFDLNEYGIS	VIYADGMRTAYTDDVK	GNVAGTFDQ	-0.10 / -0.39 / -0.46 / -0.53 / -0.38 / -0.22	0/18
GFDLNEYGIS	VIYADGMRTQYADSVK	GNQAGTFDV	0.10 / 0.44 / 0.32 / 0.73 / 0.00 / 0.52	0/18
GFDLNEYGIS	VIYADGVRTAYADSVK	GGNAGTFDI	nd / 0.67 / nd / nd / -0.30 / 1.20	0/18
GFDLNEYGIS	VIYADGKRTAYSDSVK	GENAGTFDL	-0.01 / -0.49 / -0.46 / -0.06 / -0.70 / -0.76	0/18
GFDLNEYGIS	VIYADGMRTAYAESVK	GENAGTFDL	-0.06 / 0.07 / -0.02 / -0.88 / -0.04 / -0.40	0/18
GFDLNEYGIS	VIYADGMRTSYADSVK	GEVAGTFDI	0.80 / -0.33 / -0.76 / -0.65 / -0.07 / -0.17	0/18
GFDLNEYGIS	VIYADGMRTAYSDSVK	GQTAGTFDL	-0.25 / -0.36 / -0.69 / -0.81 / -0.73 / -0.56	0/18
GFDLNEYGIS	VIYADGMRSAYADSVK	GNVAGTFDV	-0.34 / -0.52 / -0.48 / -0.71 / -0.66 / -0.12	0/18

Excerpt, the final 5 entries:

CDR-H1	CDR-H2	CDR-H3	replicates, log10 nM	empty controls
GFDLNEYGIS	VIYADGKRTAYSDSVK	GENAGTFDL	-0.01 / -0.49 / -0.46 / -0.06 / -0.70 / -0.76	0/18
GFDLNEYGIS	VIYADGMRTAYAESVK	GENAGTFDL	-0.06 / 0.07 / -0.02 / -0.88 / -0.04 / -0.40	0/18
GFDLNEYGIS	VIYADGMRTSYADSVK	GEVAGTFDI	0.80 / -0.33 / -0.76 / -0.65 / -0.07 / -0.17	0/18
GFDLNEYGIS	VIYADGMRTAYSDSVK	GQTAGTFDL	-0.25 / -0.36 / -0.69 / -0.81 / -0.73 / -0.56	0/18
GFDLNEYGIS	VIYADGMRSAYADSVK	GNVAGTFDV	-0.34 / -0.52 / -0.48 / -0.71 / -0.66 / -0.12	0/18

From the AlphaSeq antibody data of Li et al. 2023 (doi:10.1038/s41467-023-39022-2), copy in the FLAb collection.